Apparent affinities of Ab-14 variants for a coronavirus HR2 peptide

From the AlphaSeq antibody data of Engelhart et al. 2022 (doi:10.1038/s41597-022-01779-4), copy in the FLAb collection.

Antigen: PDVDLGDISGINAS, a 14-residue peptide of the SARS-CoV-2 spike HR2 region.

Each scFv is VH, three GGGGS repeats, VL, as in the parent Ab-14, and differs from it in the CDRs of the heavy chain only.
VH: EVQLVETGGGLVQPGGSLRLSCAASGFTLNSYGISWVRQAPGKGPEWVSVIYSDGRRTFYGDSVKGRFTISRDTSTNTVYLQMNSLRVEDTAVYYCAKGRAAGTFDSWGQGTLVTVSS
VL: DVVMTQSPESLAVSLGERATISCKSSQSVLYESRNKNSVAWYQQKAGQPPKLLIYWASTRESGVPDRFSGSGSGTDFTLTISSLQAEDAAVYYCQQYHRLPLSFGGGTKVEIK

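The parent was found by panning a naive human phage display library on the peptide. In library AAYL49, one, two or three CDR residues were substituted; doubles and triples were drawn at random. The assay is AlphaSeq: two haploid yeast populations carry antibody and antigen on their surface. After mating in shaken culture at 30 °C for 16 h, diploids were selected and their barcode pairs sequenced. Scores were corrected for input abundance and mapped to Kd with protein pairs of known affinity run in the same pool. The assay was run in three technical replicates.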

The parent's heavy chain CDRs are GFTLNSYGIS, VIYSDGRRTFYGDSVK, GRAAGTFDS; each variant's own CDRs replace them letter for letter. All variants listed here change R56 of the VH, counted from its first residue. The read-out is the apparent dissociation constant on a log10 scale (nM): the lower, the stronger. Replicates are averaged; those with no signal do not enter the mean. "ND" means that the variant was in the library but no mating with the target was seen in that replicate; the authors take this as a sign of poor binding, and no number exists. Order: sorted from the lowest average up, undetected variants last.

Variant GFTLNEYGIS | VIYSDGYRTFYGDSVK | GRAAGTFDS showed -0.10, 0.45, 0.05 (mean 0.13; controls 1 of 9). Variant GFTLNSYGIS | VIYSDGDRTFYGDSVK | GRAAFTFDS gave 1.34, 1.35, 1.51 (mean 1.40; controls 4 of 9). For GFTLNSYGIS | VIYSDGYRTGYGDSVK | GRFAGTFDS, the assay gave 1.38, 1.45, 1.68 (mean 1.50; controls 4 of 9). With GFTLNSYGIS | VIYSDGQRTFYGRSVK | GRAAGTFDS the result was 2.27, 2.17, 2.09 (mean 2.17; controls 1 of 9). For GFTLNWYGIS | VIYSDGTRTFYGDSVK | GRAAITFDS, the assay gave 2.29, 1.77, 2.48 (mean 2.18; controls 5 of 9). For GFCLNSYGIS | VIYSDGDRTFYGDSVK | GRAATTFDS, the assay gave 2.18, 2.19, 2.67 (mean 2.35; controls 2 of 9).

Variant GFTLNSLGIS | VIYSDGVRRFYGDSVK | GRAAGTFDS gave 2.48, 2.82, 3.37 (mean 2.89; controls 0 of 9). With NFTLNSYGIS | VIYSDGLRTFYGDSTK | GRAAGTFDS the result was 3.25, 2.55, 3.12 (mean 2.97; controls 3 of 9). Variant GFTLNSYGIS | VIYSDGGRTEYGDSVK | GRAAGTFDS gave 2.16, 2.80, 4.31 (mean 3.09; controls 3 of 9). For GFTLISYGHS | VIYSDGLRTFYGDSVK | GRAAGTFDS, the assay gave 3.37, 2.99, ND (mean 3.18; controls 0 of 9). With NFTLNSYGIS | VIYSDGDRTFYGDSVK | GRAAGTFDH the result was 3.71, 4.05, 3.41 (mean 3.73; controls 0 of 9). Variant GFTLNGYGIS | VIYSDGSRTFYGGSVK | GRAAGTFDS gave 3.21, 3.69, 4.63 (mean 3.84; controls 2 of 9).

For GFTLNSYGCS | VIYSDGIRTFYFDSVK | GRAAGTFDS, the assay gave ND, 3.90, ND (controls 0 of 9). For GFTLNSYGIS | HIYSDGIRTFYGDSVK | GRAVGTFDS, the assay gave 3.98, ND, 4.38 (mean 4.18; controls 6 of 9). With GFTLNSYGIS | PIYSDGVRTFYGDSVK | GRAAGTFDS the result was ND, 3.93, 4.50 (mean 4.22; controls 1 of 9). With GFTLNSYGIS | VFYSYGSRTFYGDSVK | GRAAGTFDS the result was ND, ND, 4.41 (controls 0 of 9). With GFTFNSYGIS | VIYSDGDRTFYGDSVK | GRAAGTFDS the result was ND, ND, 4.81 (controls 0 of 9). Variant GFTLNSYGIS | VIYSDGWRTFYGDSVK | GRASGTFDW showed 6.58, 4.07, 5.14 (mean 5.26; controls 6 of 9).

Variant GFTLNSYGIS | VISSDGKRTFYGDSVY | GRAAGTFDS showed 6.22, 4.44, ND (mean 5.33; controls 3 of 9). Variant IFKLNSYGIS | VIYSDGARTFYGDSVK | GRAAGTFDS showed 5.47, ND, ND (controls 0 of 9). For GFTLNSYGIS | VIYSDGYRTFYGDVVY | GRAAGTFDS, the assay gave ND, ND, 6.00 (controls 3 of 9). With GFTLNSYGKS | DIYSDGHRTFYGDSVK | GRAAGTFDS the result was ND, ND, ND (controls 0 of 9). Variant CFTLNSYGIS | VIYSDGQMTFYGDSVK | GRAAGTFDS showed ND, ND, ND (controls 0 of 9). For GFALNSYGIM | VIYSDGNRTFYGDSVK | GRAAGTFDS, the assay gave ND, ND, ND (controls 1 of 9).

With GFTLFSYGIS | VIYSDGNRTFYGDSKK | GRAAGTFDS the result was ND, ND, ND (controls 1 of 9). For GFTLNSYGIS | VDYSDGERTFYGDSVK | ARAAGTFDS, the assay gave ND, ND, ND (controls 0 of 9). For GFTLNSYGIS | VIYSDGMRTFYGDSVK | GRAAGTFCN, the assay gave ND, ND, ND (controls 4 of 9). Variant GFTLNSYGIS | VIYSQGWRTFYGDSVK | GRAAGTFDS showed ND, ND, ND (controls 0 of 9). Variant GFTLNSYGIS | AIYSDGYRTFYGDSVA | GRAAGTFDS showed ND, ND, ND (controls 0 of 9). For GFTLNSYGIS | VIYNDGHRTFYGDSVK | GRAACTFDS, the assay gave ND, ND, ND (controls 5 of 9).

Variant GFTLNSYGIA | VIYSDGYRTFYGDSRK | GRAAGTFDS gave ND, ND, ND (controls 0 of 9). Variant GGTLHSYGIS | VIYSDGWRTFYGDSVK | GRAAGTFDS showed ND, ND, ND (controls 1 of 9). For GFTLNSYGIR | IIYSDGHRTFYGDSVK | GRAAGTFDS, the assay gave ND, ND, ND (controls 3 of 9). Variant GFTLNMYGIS | VIYSGGSRTFYGDSVK | GRAAGTFDS gave ND, ND, ND (controls 1 of 9). With GFTLNSYGIT | VIYSDGQRTFYGDSVK | GRKAGTFDS the result was ND, ND, ND (controls 1 of 9). Variant GFTLNSYGIS | VIYSDATRTFYGDSVK | GRAAGTFIS showed ND, ND, ND (controls 0 of 9).

For GFTLNSYHIS | VIYSDGYRTFYGDSVK | GRAAGTCDS, the assay gave ND, ND, ND (controls 1 of 9). For AFTLNSYWIS | VIYSDGTRTFYGDSVK | GRAAGTFDS, the assay gave ND, ND, ND (controls 1 of 9). Variant QFTLNSYGIS | VIYSDGKRTFYGDSVK | GRAAGTFES gave ND, ND, ND (controls 1 of 9). With GFTLNSYGIS | VIYSDGKRTLAGDSVK | GRAAGTFDS the result was ND, ND, ND (controls 1 of 9). For GFTLNSAGIS | VIYSDGARLFYGDSVK | GRAAGTFDS, the assay gave ND, ND, ND (controls 0 of 9). For GFTLNSYGIS | VIYSDIGRTFYGDSVK | GRAAGTFDS, the assay gave ND, ND, ND (controls 1 of 9).

For GFTLNSYGIS | VEYSDGLRTFYGDSVK | GRAAFTFDS, the assay gave ND, ND, ND (controls 2 of 9).

In this assay the parent's reference entry averaged 0.65; its copy inside this library read 4.11 (one replicate of three). Nonspecific signal, from three strains lacking the peptide, appeared in 15% of pairings of library AAYL49, centred on 4.06 (5% of these signals below 2.83); values are not corrected for it. The control count says in how many pairings with the empty strains this scFv gave a signal.